The numbers were not newly measured in US8598119B2, “Methods and compositions for sleep disorders and other disorders” (priority 2008, dated 2013), which cites them from elsewhere.

The chains behind the UniProt entries cited, without tags or fusion partners.
UniProt P31652, whole entry: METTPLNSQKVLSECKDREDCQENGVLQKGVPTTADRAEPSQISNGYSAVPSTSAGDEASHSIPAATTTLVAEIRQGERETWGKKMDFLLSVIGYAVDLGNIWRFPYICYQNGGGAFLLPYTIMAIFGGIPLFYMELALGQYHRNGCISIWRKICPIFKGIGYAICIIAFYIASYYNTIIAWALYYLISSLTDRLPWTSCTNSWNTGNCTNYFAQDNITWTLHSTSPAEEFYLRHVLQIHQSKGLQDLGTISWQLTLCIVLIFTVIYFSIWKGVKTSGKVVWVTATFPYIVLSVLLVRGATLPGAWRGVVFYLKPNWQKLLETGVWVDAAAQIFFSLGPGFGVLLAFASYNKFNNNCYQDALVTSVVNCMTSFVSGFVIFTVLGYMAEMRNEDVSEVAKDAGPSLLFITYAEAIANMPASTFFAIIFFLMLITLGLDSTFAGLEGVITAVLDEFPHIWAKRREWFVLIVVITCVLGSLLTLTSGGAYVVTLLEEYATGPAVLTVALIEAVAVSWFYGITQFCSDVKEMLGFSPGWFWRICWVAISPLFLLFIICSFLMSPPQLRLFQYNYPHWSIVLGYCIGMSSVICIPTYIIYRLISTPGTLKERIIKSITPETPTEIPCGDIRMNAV

The structures appear in SMILES notation.

As usually defined, the Ki is a measure of affinity in units of concentration, obtained from inhibition or displacement.

The data set deals with SERT (rat forebrain synaptosomal membrane) (Rattus norvegicus (Rat), UniProt P31652). The following applies: read-out: Ki of reference agents, rat forebrain SERT assay; assay validation / reference agents, Caliper assay #100-0056; cited from earlier work.

Take `Fc1ccc([C@@H]2CCNC[C@H]2COc2ccc3c(c2)OCO3)cc1`: the inhibitory constant (Ki) is 0.1 nM.
